Test results: patent publication US8986418B1, “Method and system for agricultural fertigation” (priority 2008, dated 2015)
“And” between values parts separate entries of the source, which are not always exact repeats. Identical values can stand only once.

Experiments:
[1] = cited from earlier work
[2] = Maximum calcium in irrigation water together with phosphate fertilizer (solubility threshold); assay type: physicochemical; conditions: water pH 6.5
Excerpt: These fertilizers are not slug fed simultaneously because the slug-fed calcium concentration is vastly higher than the threshold level beyond which precipitation will occur when added together with phosphate. In more detail, when added as shown above, namely 17.5 lbs/acre calcium (as Ca) with a water usage of 0.0133 ac-ft/acre (on both March 1 and July 1), the calcium addition rate is 487.1 ppm Ca+2 or 1218 ppm (as CaCO3). (Using the same calculation method, the addition rate of 35.00 lbs/acre phosphate (as P2O5) on March, 30 and September 15 is 1304 ppm PO4-3.) The maximum amount of calcium that can be present in the irrigation water concomitantly with that phosphate-based fertilizer, at a water pH of 6.5, is 4.4 ppm calcium (as CaCO3).
When simultaneously feeding both a calcium and the above-indicated amount of phosphate crop-quality enhancer at a water pH of 6.5 using the method and system of the present invention, the maximum amount of calcium that can be present in the irrigation water is 94.8 ppm calcium (as Ca) for 14.81 ppm PO4-3 and 78.2 ppm calcium (as Ca) for 19.75 ppm PO4-3. Exceeding that maximum will, due to calcium/phosphate interaction and/or precipitation, will lead to plugging of the irrigation system. As indicated above, the calcium (as Ca) concentration in the irrigation water is 3.08 ppm calcium (as Ca) during the continuous fertigation process from March 1 through May 31 and is 6.13 ppm calcium (as Ca) during the continuous fertigation process from September 1 through October 31. (There is no addition of phosphate June through August.) The calcium-concentration threshold above which there is a irrigation-system plugging problem, is thirty-six times higher than the highest calcium concentration used in this projection.
For the first injection of a phosphate fertilizer the maximum amount of calcium that can be present in the irrigation water concomitantly with that phosphate-based fertilizer, at a water pH of 6.5, is 2.5 ppm calcium (as Ca). For the second injection of a phosphate fertilizer the maximum amount of calcium that can be present in the irrigation water concomitantly with that phosphate-based fertilizer, at a water pH of 6.5, is 4.2 ppm calcium (as Ca). The 695.9 ppm (as Ca) addition rate is about 278 times higher than that threshold for the first injection of phosphate fertilizer. The 278.4 ppm (as Ca) addition rate is about 66.3 times higher than that threshold for the second injection of phosphate fertilizer.
When simultaneously feeding both a calcium and the above-indicated amount of phosphate crop-quality enhancer at a water pH of 6.5 using the method and system of the present invention, the maximum amount of calcium that can be present in the irrigation water is 124 ppm calcium (as Ca). Exceeding that maximum will, due to calcium/phosphate interaction and/or precipitation, lead to plugging of the irrigation system. As indicated above, the calcium (as Ca) concentration in the irrigation water is 5.54 ppm calcium (as Ca) during the continuous fertigation process from March 1 through May 31 and is 7.38 ppm calcium (as Ca) during the continuous fertigation process from September 1 through October 31. […]

Structure (SMILES) | Solubility with anion CO3^−2 ([1]; anion CO3^−2) | Solubility with anion Cl ([1]; anion Cl) | Solubility with anion HCO3^− ([1]; anion HCO3^−) | Solubility with anion NO3^− ([1]; anion NO3^−) | Solubility with anion OH^− ([1]; anion OH^−) | Solubility with anion PO4^−3 ([1]; anion PO4^−3) | Solubility with anion SO4^−2 ([1]; anion SO4^−2) | maximum amount of calcium that can be present in the irrigation water ([2]; 9.88 ppm PO4-3 (Example 5)) | maximum amount of calcium that can be present in the irrigation water ([2]; 14.81 ppm PO4-3 (Example 2)) | maximum amount of calcium that can be present in the irrigation water ([2]; 19.75 ppm PO4-3 (Example 2)) | maximum amount of calcium that can be present in the irrigation water concomitantly with phosphate-based fertilizer ([2]; 1304 ppm PO4-3 (Comparative Example B slug feed)) | maximum amount of calcium that can be present in the irrigation water concomitantly with phosphate-based fertilizer ([2]; second injection of phosphate fertilizer, October 30 (Comparative Example E))
[Ca+2] [Ca^+2] | I (I means insoluble (<20 ppm)) | S (S means soluble (over 5,000 ppm)) | SS (SS means slightly soluble (2,000 to 5,000 ppm)) | S (S means soluble (over 5,000 ppm)) | VSS (VSS means very slightly soluble (20-2,000 ppm)) | I (I means insoluble (<20 ppm)) | VSS (VSS means very slightly soluble (20-2,000 ppm)) | – | – | – | – | –
[Ca+2] [calcium] | – | – | – | – | – | – | – | 124 ppm calcium (as Ca) and 124.1 ppm calcium (as Ca) | 94.8 ppm calcium (as Ca) | 78.2 ppm calcium (as Ca) | 4.4 ppm calcium (as CaCO3) | 4.2 ppm calcium (as Ca) and 7.38 ppm calcium (as Ca)
